Test results published in publication PMC7093396 (Scientific Reports, 2020).

Tested on: Nc1nc2c(c(=O)[nH]1)N=C(CNc1ccc(C(=O)N[C@@H](CCC(=O)O)C(=O)O)cc1)CN2
Test: purified protein
Settings: NADPH

Substance	Km	kcat	kcat/Km
Bd DHFR_M29L_F51I (dihydrofolate reductase, Bd3231) (Bdellovibrio bacteriovorus HD100; F51I/M29L)	9.2 ± 1.2 µM	109 s⁻¹	1.2e+07 M⁻¹ s⁻¹
Bd DHFR_F51I (dihydrofolate reductase, Bd3231) (Bdellovibrio bacteriovorus HD100; F51I)	4.9 ± 1.1 µM	73 s⁻¹	1.5e+07 M⁻¹ s⁻¹
Bd DHFR_M29L (dihydrofolate reductase, Bd3231) (Bdellovibrio bacteriovorus HD100; M29L)	3.4 ± 0.6 µM	25 s⁻¹	7.3e+06 M⁻¹ s⁻¹
Bd DHFR (dihydrofolate reductase, Bd3231) (Bdellovibrio bacteriovorus HD100)	5.6 ± 1.9 µM	299 s⁻¹	5.4e+07 M⁻¹ s⁻¹
